Source: US20090062180

Tests used:
[1] = molecular target: T1, Peptide No. 1 KRREILS1RRPS2(p)YR (derived from CREB)
T1 chain: KRREILSRRPSYR

[2] = molecular target: T2, Peptide No. 8 KEEPPAPPQS(p)P (pAHSF)
T2 chain: KEEPPAPPQSP

[3] = molecular target: T3, Peptide No. 4 ILSRPPY(p)YR
T3 chain: ILSRPPYYR

[4] = molecular target: T4, Peptide No. 9 KEAPPAPPQS(p)P (L803)
T4 chain: KEAPPAPPQSP

[5] = molecular target: T5, Peptide No. 10 KEEPPAPPQSP
T5 chain: KEEPPAPPQSP

[6] = molecular target: T6, Peptide No. 7 KEEPPSPPQS(p)P (derived from Heat shock factor-1)
T6 chain: KEEPPSPPQSP

[7] = molecular target: T7, Peptide No. 5 KRREILARRPS(p)YR (Hz13)
T7 chain: KRREILARRPSYR

Peptide No. 13 EPPAPRRE = molecular target: T8, Peptide No. 13 EPPAPRRE
T8 chain: EPPAPRRE

[8] = molecular target: T9, Peptide No. 11 KEEPPAPPQEP
T9 chain: KEEPPAPPQEP

Peptide No. 14 EPPAPR = molecular target: T10, Peptide No. 14 EPPAPR
T10 chain: EPPAPR

Peptide No. 3 ILSRPPEYR = molecular target: T11, Peptide No. 3 ILSRPPEYR
T11 chain: ILSRPPEYR

[9] = molecular target: T12, Peptide No. 12 PAPPQS(p)P
T12 chain: PAPPQSP

B1: Purified recombinant rabbit GSK-3β (glycogen synthase kinase-3β) (protein)
chain: MSGRPRTTSFAESCKPVQQPSAFGSMKVSRDKDGSKVTTVVATPGQGPDRPQEVSYTDTKVIGNGSFGVVYQAKLCDSGELVAIKKVLQDKRFKNRELQIMRKLDHCNIVRLRYFFYSSGEKKDEVYLNLVLDYVPETVYRVARHYSRAKQTLPVIYVKLYMYQLFRSLAYIHSFGICHRDIKPQNLLLDPDTAVLKLCDFGSAKQLVRGEPNVSYICSRYYRAPELIFGATDYTSSIDVWSAGCVLAELLLGQPIFPGDSGVDQLVEIIKVLGTPTREQIREMNPNYTEFKFPQIKAHPWTKVFRPRTPPEAIALCSRLLEYTPTARLTPLEACAHSFFDELRDPNVKLPNGRDTPALFNFTTQELSSNPPLATILIPPHARIQAAASTPTNATAASDANAGDRGQTNNAASASASNST
Substrate functionality [1]: +
Substrate functionality [2]: -
Substrate functionality [3]: -
Substrate functionality [4]: -
Substrate functionality [5]: -
Substrate functionality [6]: +
Substrate functionality [7]: -
Substrate functionality (Peptide No. 13 EPPAPRRE): -
Substrate functionality [8]: -
Substrate functionality (Peptide No. 14 EPPAPR): -
Substrate functionality (Peptide No. 3 ILSRPPEYR): -
Substrate functionality [9]: -
